Source: publication PMC4183577, “Structural Basis for Inhibition of the MDM2:p53 Interaction by an Optimized MDM2-Binding Peptide Selected with mRNA Display” (PLoS ONE, 2014)

Assay: CD spectroscopy with TFE
Assay type: physicochemical
Details: 0.1 mM peptide, 25°C, light-path 2 mm
Text: […]. The light-path length used was 2 mm. The results were expressed as mean residue molar ellipticity [θ].

CC(C)C[C@H](NC(=O)[C@H](CC(=O)O)NC(=O)[C@H](CO)NC(=O)[C@H](Cc1ccccc1)NC(=O)[C@@H](NC(=O)[C@H](CCC(=O)O)NC(=O)CCCCCNC(=O)CCCC[C@@H]1SC[C@@H]2NC(=O)N[C@@H]21)[C@@H](C)O)C(=O)N[C@@H](Cc1c[nH]c2ccccc12)C(=O)N[C@@H](CCCCN)C(=O)N[C@@H](CC(C)C)C(=O)N[C@@H](CC(C)C)C(=O)N1CCC[C@H]1C(=O)N[C@@H](CCC(=O)O)C(=O)O [p53 peptide]
CD spectral pattern in the absence of TFE (0% TFE): characteristic spectral pattern for an unstructured peptide
CD spectral pattern in the presence of TFE (30% and 50% TFE): hardly affected the spectral pattern
